Where “and” joins values, the source holds several entries; their conditions need not be identical. Equal values may be shown once. Only a part is listed here, and it is no random draw. Some results for these compounds are left out of this collection, so the calls shown say nothing about other tests. Calls of active or inactive are those of the source. The call rests on the fitted dose curve; in most records, active means well fitted curve in the direction sought with a large enough effect; inconclusive means small, poorly fitted or top-dose-only effect, or another doubt; inactive means no such curve, though single readings can be large or run the other way.

The test in a line: qHTS Assay for Modulators of miRNAs and/orActivators of miR-21.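 Further: % of control where 0% means no effect; miR-21 action dims this reporter so a rising signal means less miR-21 action.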 To be noted: HeLa miR-21 FLuc reporter, luciferase, 48 h; at 38.3 µM (top of the series). Background: Quantitative high-throughput screening tests each substance at several concentrations.
In the case of `COc1cc(C(=O)NCC2(N(C)C)CCCCC2)c([N+](=O)[O-])cc1OC`, the activity change, positive = activation was inactive: 0.896%.

Turning to `CN(C)C1(CNC(=O)c2ccc(Br)cc2)CCCCC1`, the activity change, positive = activation was inactive: -7.13%.

Consider `O=C(NCC1(N2CCCCC2)CCCCC1)c1cccc(Cl)c1`, for which the activity change, positive = activation was inactive: 3.7%.

Regarding `COc1ccc(Cl)cc1C(=O)NCC1(N(C)C)CCCCC1`, the activity change, positive = activation is inactive: -0.86%.

As for `COc1cccc(C(=O)NCC2(N3CCCCC3)CCCCC2)c1`, the activity change, positive = activation is inactive: -3.93%.

In the case of `COc1ccc(C(=O)NCC2(N(C)C)CCCCC2)cc1Cl`, the activity change, positive = activation is inactive: 0.521%.

Turning to `CC(C)COc1ccc(C(=O)NCC2(N(C)C)CCCCC2)cc1`, the activity change, positive = activation is inactive: -1.88%.

Regarding `COc1cccc(C(=O)NCC2(N3CCOCC3)CCCCC2)c1`, the activity change, positive = activation was inactive: -5.64%.

Take `O=C(OC1CN2CCC1CC2)C(CO)(c1ccccc1)c1ccccc1` (centres undefined): the activity change, positive = activation was inactive: -5.05%.

On to `CC(C)Oc1ccc(C(=O)NCC2(N(C)C)CCCCC2)cc1`, for which the activity change, positive = activation is inactive: -7.24% and inactive: -1.8%.

In the case of `CN(C)c1cccc(C(=O)NCC2(N(C)C)CCCCC2)c1`, the activity change, positive = activation was inactive: -13.6%.

As to `COc1ccc(Br)c(C(=O)NCC2(N3CCCCC3)CCCCC2)c1`, the activity change, positive = activation is inactive: 2.03%.

On to `Cc1cccc(C(=O)NCC2(N(C)C)CCCCC2)c1`, for which the activity change, positive = activation is inactive: -6.8%.

For the molecule `COc1cc(C(=O)NCC2(N(C)C)CCCCC2)cc(OC)c1OC`, the activity change, positive = activation is inactive: -4.68%.

Take `CN1[C@@H]2CC[C@H]1CC(OC(=O)C(O)(c1ccccc1)c1ccccc1)C2` (some centres undefined): the activity change, positive = activation was inactive: -0.791%.

With `O=C(NCC1(N2CCCCC2)CCCCC1)c1cc([N+](=O)[O-])ccc1Cl`, the activity change, positive = activation was inactive: -0.832%.

Regarding `Cc1ccc(C(=O)NCC2(N3CCCCC3)CCCCC2)cc1`, the activity change, positive = activation is inactive: 7.12%.

As for `CN(C)C1(CNC(=O)c2ccccc2F)CCCCC1`, the activity change, positive = activation was inactive: 2.55%.

With `COc1cc(SC)ccc1C(=O)NCC1(N(C)C)CCCCC1`, the activity change, positive = activation was inactive: -4.6%.

In the case of `CCN(CC)CC(C)C(C)OC(=O)C(O)(c1ccccc1)c1ccccc1` (centres undefined), the activity change, positive = activation is inactive: 5.51%.

With `CN(C)C1(CNC(=O)c2cccc(Cl)c2)CCCCC1`, the activity change, positive = activation was inactive: -3.91%.

On to `CC(C)N1C(=O)CC2(CCN(CCOC(=O)C(O)(c3ccccc3)c3ccccc3)CC2)C1=O`, for which the activity change, positive = activation is inactive: 1.52%.

With `CCCCOc1ccccc1C(=O)NCC1(N(C)C)CCCCC1`, the activity change, positive = activation is inactive: 2.53%.

As for `CN(C)C1CCCC1OC(=O)C(O)(c1ccccc1)c1ccccc1` (centres undefined), the activity change, positive = activation is inactive: -1.3%.

For `CN(C)c1ccc(C(=O)NCC2(N(C)C)CCCCC2)cc1`, the activity change, positive = activation is inactive: -8.67%.

In the case of `CN(C)C1(CNC(=O)c2ccccc2[N+](=O)[O-])CCCCC1`, the activity change, positive = activation was inactive: -2.06%.

Take `Cc1ccccc1C(=O)NCC1(N2CCCCC2)CCCCC1`: the activity change, positive = activation is inactive: -5.84%.

In the case of `CCOc1cccc(C(=O)NCC2(N(C)C)CCCCC2)c1`, the activity change, positive = activation was inactive: -3.49%.

Consider `COc1ccc(C(=O)NCC2(N(C)C)CCCCC2)cc1`, for which the activity change, positive = activation is inactive: -0.237%.

With `O=C(NCC1(N2CCCCC2)CCCCC1)c1cccc(Br)c1`, the activity change, positive = activation is inactive: 1.92%.

For the molecule `Cc1cc(C(=O)NCC2(N3CCCCC3)CCCCC2)ccc1[N+](=O)[O-]`, the activity change, positive = activation was inactive: 5.55%.

On to `CCN1CCCC(OC(=O)C2(O)c3ccccc3C=Cc3ccccc32)C1` (centres undefined), for which the activity change, positive = activation was inactive: -8.54%.

With `O=C(NCC1(N2CCCCC2)CCCCC1)c1cc(F)c(F)cc1Cl`, the activity change, positive = activation was inactive: -5.08%.

Take `C=CCN1CCN(CCOC(=O)C(O)(c2ccccc2)c2ccccc2)CC1`: the activity change, positive = activation is inactive: 0.53%.
